# Results reported in patent US8981092B2, “Substituted 3,4-dihydro-2H-pyrrolo[1,2-a]pyrazin-1-ones as modulators of protein kinase activity” (Nerviano Medical Sciences S.r.l., priority 2008, dated 2015).
# The chains behind the UniProt entries cited, without tags or fusion partners. Where a name states a change or a piece, a line headed by the entry shows the natural chain unless it says otherwise.
# UniProt Q9P1W9: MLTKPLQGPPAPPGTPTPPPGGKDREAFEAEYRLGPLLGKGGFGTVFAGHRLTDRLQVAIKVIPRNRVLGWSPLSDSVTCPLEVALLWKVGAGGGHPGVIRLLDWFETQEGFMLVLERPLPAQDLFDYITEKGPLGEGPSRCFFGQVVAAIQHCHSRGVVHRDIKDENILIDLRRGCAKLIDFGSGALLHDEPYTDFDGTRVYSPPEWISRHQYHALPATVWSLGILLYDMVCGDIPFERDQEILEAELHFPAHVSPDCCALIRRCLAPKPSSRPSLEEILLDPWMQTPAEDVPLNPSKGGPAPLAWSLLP
# Molecular target: Full-length human PIM-2 (Homo sapiens, UniProt Q9P1W9)
# Conditions: read-out: PIM-2 IC50; ATP 4 μM, Aktide 5 μM, enzyme 1.5 nM
row,Structure (SMILES),IC50 [nM]
1,C=CCN1CCN(C(=O)CC2CNC(=O)c3cc(-c4cccc(Cl)c4)cn32)CC1 (centres unmarked) [Compound A150-M-B49],1610
2,O=C(CC1CNC(=O)c2cc(-c3cccc(Cl)c3)cn21)Nc1ccccc1 (centres unmarked) [Compound A150-M-B52],5170
3,O=C(CC1CNC(=O)c2cc(-c3ccc(F)c(F)c3)cn21)NCc1ccncc1 (centres unmarked) [Compound A139-M-B39],3050
4,O=C(C[C@@H]1CNC(=O)c2cc(-c3cccc(F)c3)cn21)N[C@H](CO)Cc1ccccc1 [A127-M-B64 isomer R],≥ 10000
5,NC[C@@H](NC(=O)C[C@H]1CNC(=O)c2cc(-c3cccc(C(F)(F)F)c3)cn21)c1ccccc1 [A133-M-B65 isomer S],820
6,O=C(CC1CNC(=O)c2cc(-c3ccccc3F)cn21)NCc1ccco1 (centres unmarked) [Compound A128-M-B40],4500
7,O=C(C[C@H]1CNC(=O)c2cc(-c3cccc(C(F)(F)F)c3)cn21)N[C@H](CO)C1CCCCC1 [A133-M-B61 isomer S],4790
8,Cc1ccccc1NC(=O)CC1CNC(=O)c2cc(-c3cccc(Cl)c3)cn21 (centres unmarked) [Compound A150-M-B36],8980
9,O=C(CC1CNC(=O)c2cc(-c3ccsc3)cn21)NCc1cccc(F)c1 (centres unmarked) [Compound A33-M-B30],1920
10,O=C(C[C@@H]1CNC(=O)c2cc(-c3cc(F)ccc3F)cn21)N[C@H](CO)c1ccccc1 [A158-M-B62 isomer R],660
11,O=C(CC1CNC(=O)c2cc(-c3cn[nH]c3)cn21)NCc1ccccc1 (centres unmarked) [Compound A144-M-B14],4920
12,O=C(C[C@@H]1CNC(=O)c2cc(-c3cc(F)ccc3F)cn21)N[C@H](CO)C1CCCCC1 [A158-M-B61 isomer R],5550
13,NC[C@@H](NC(=O)C[C@@H]1CNC(=O)c2cc(-c3ccnc(F)c3)cn21)c1ccccc1 [A157-M-B65 isomer R],500
14,O=C(CC1CNC(=O)c2cc(-c3cccc(OC(F)(F)F)c3)cn21)NCc1ccccc1 (centres unmarked) [Compound A134-M-B14],7220
15,O=C(CC1CNC(=O)c2cc(-c3cccc(Cl)c3)cn21)NCC1CC1 (centres unmarked) [Compound A150-M-B48],2860
16,O=C(CC1CNC(=O)c2cc(-c3ccc(F)cc3)cn21)NCC1CCCCC1 (centres unmarked) [Compound A129-M-B22],5920
17,O=C(CC1CNC(=O)c2cc(-c3ccccc3F)cn21)NCc1ccncc1 (centres unmarked) [Compound A128-M-B39],870
18,COC(=O)c1cccc(-c2cc3n(c2)C(CC(=O)NCc2cccc(F)c2)CNC3=O)c1 (centres unmarked) [Compound A142-M-B30],2580
19,COCCCNC(=O)CC1CNC(=O)c2cc(-c3cccc(Cl)c3)cn21 (centres unmarked) [Compound A150-M-B42],≥ 10000
20,O=C(CC1CNC(=O)c2cc(-c3ccccc3F)cn21)NCc1ccccc1 (centres unmarked) [Compound A128-M-B14],2110
21,CCCNC(=O)CC1CNC(=O)c2cc(-c3cccc(Cl)c3)cn21 (centres unmarked) [Compound A150-M-B25],5860
22,O=C(CC1CNC(=O)c2cc(-c3cccc(Cl)c3)cn21)NC1CCCCC1 (centres unmarked) [Compound A150-M-B24],4060

row,Structure (SMILES),IC50 [nM]
1,O=C(CC1CNC(=O)c2cc(-c3cccc(Cl)c3)cn21)NCc1ccncc1 (centres unmarked) [Compound A150-M-B39],600
2,CN1CCN(C(=O)CC2CNC(=O)c3cc(-c4cc(F)ccc4F)cn32)C(c2ccccc2)C1 (mixture of isomers) [Compound A158-M-B63],3050
3,O=C(C[C@@H]1CNC(=O)c2cc(-c3cccc(C(F)(F)F)c3)cn21)N[C@H](CO)Cc1ccccc1 [A133-M-B64 isomer R],≥ 10000
4,O=C(CC1CNC(=O)c2cc(-c3ccc4c(c3)OCO4)cn21)NCC1CCCCC1 (centres unmarked) [Compound A132-M-B22],≥ 10000
5,O=C(CC1CNC(=O)c2cc(-c3ccccc3F)cn21)NCc1cccc(F)c1 (centres unmarked) [Compound A128-M-B30],2030
6,O=C(CC1CNC(=O)c2cc(-c3cccc(C(F)(F)F)c3)cn21)NCc1ccccc1 (centres unmarked) [Compound A133-M-B14],7400
7,CN1CCN(C(=O)CC2CNC(=O)c3cc(-c4cccc(C(F)(F)F)c4)cn32)C(c2ccccc2)C1 (mixture of isomers) [Compound A133-M-B63],≥ 10000
8,CN1CCN(C(=O)CC2CNC(=O)c3cc(-c4ccnc(F)c4)cn32)C(c2ccccc2)C1 (mixture of isomers) [Compound A157-M-B63],2370
9,O=C(C[C@@H]1CNC(=O)c2cc(-c3cccc(C(F)(F)F)c3)cn21)N[C@H](CO)C1CCCCC1 [A133-M-B61 isomer R],≥ 10000
10,NCC(NC(=O)CC1CNC(=O)c2cc(-c3cc(F)ccc3F)cn21)c1ccccc1 (stereo not drawn) [A158-M-B65 isomer S],180
11,CC(C)CCNC(=O)CC1CNC(=O)c2cc(-c3ccccc3F)cn21 (centres unmarked) [Compound A128-M-B32],7550
12,NC[C@@H](NC(=O)C[C@H]1CNC(=O)c2cc(-c3cccc(F)c3)cn21)c1ccccc1 [A127-M-B65 isomer S],180
13,CC(C)CCNC(=O)CC1CNC(=O)c2cc(-c3ccc(F)cc3F)cn21 (centres unmarked) [Compound A151-M-B32],≥ 10000
14,CN1CCN(C(=O)CC2CNC(=O)c3cc(-c4cccc(F)c4)cn32)C(c2ccccc2)C1 (mixture of isomers) [Compound A127-M-B63],2440
15,O=C1NCC(CC(=O)N2CCCCCC2)n2cc(-c3cccc(Cl)c3)cc21 (centres unmarked) [Compound A150-M-B45],4650
16,O=C(CC1CNC(=O)c2cc(-c3ccsc3)cn21)NCC1CCCCC1 (centres unmarked) [Compound A33-M-B22],5030
17,O=C(C[C@H]1CNC(=O)c2cc(-c3cccc(F)c3)cn21)N[C@H](CO)C1CCCCC1 [A127-M-B61 isomer S],250
18,CC(C)CCNC(=O)CC1CNC(=O)c2cc(-c3cccc(F)c3)cn21 (centres unmarked) [Compound A127-M-B32],≥ 10000
19,O=C(CC1CNC(=O)c2cc(-c3cccc(C(F)(F)F)c3)cn21)NCC1CCCCC1 (centres unmarked) [Compound A133-M-B22],≥ 10000
20,CC(C)CCNC(=O)CC1CNC(=O)c2cc(-c3cccc(Cl)c3)cn21 (centres unmarked) [Compound A150-M-B32],4490
21,O=C(CC1CNC(=O)c2cc(-c3ccc(F)c(F)c3)cn21)NCc1ccco1 (centres unmarked) [Compound A139-M-B40],2220
22,O=C(CC1CNC(=O)c2cc(-c3cccc(F)c3)cn21)NCc1cccc(F)c1 (centres unmarked) [Compound A127-M-B30],1670

row,Structure (SMILES),IC50 [nM]
1,O=C(C[C@@H]1CNC(=O)c2cc(-c3ccnc(F)c3)cn21)N[C@H](CO)c1ccccc1 [A157-M-B62 isomer R],1050
2,O=C(CC1CNC(=O)c2cc(-c3cn[nH]c3)cn21)NCc1ccc(F)cc1 (centres unmarked) [Compound A144-M-B30],680
3,O=C(C[C@H]1CNC(=O)c2cc(-c3cccc(F)c3)cn21)N[C@H](CO)c1ccccc1 [A127-M-B62 isomer S],520
4,O=C(C[C@@H]1CNC(=O)c2cc(-c3cccc(C(F)(F)F)c3)cn21)N[C@H](CO)c1ccccc1 [A133-M-B62 isomer R],≥ 10000
5,O=C(CC1CNC(=O)c2cc(-c3cccc(F)c3)cn21)NCc1ccncc1 (centres unmarked) [Compound A127-M-B39],1150
6,O=C(C[C@H]1CNC(=O)c2cc(-c3cccc(C(F)(F)F)c3)cn21)N[C@H](CO)c1ccccc1 [A133-M-B62 isomer S],1330
7,O=C(CC1CNC(=O)c2cc(-c3ccc(F)c(F)c3)cn21)NCc1ccccc1 (centres unmarked) [Compound A139-M-B14],3440
8,CC(C)(C)NC(=O)CC1CNC(=O)c2cc(-c3cccc(Cl)c3)cn21 (centres unmarked) [Compound A150-M-B43],5890
9,O=C(C[C@@H]1CNC(=O)c2cc(-c3ccnc(F)c3)cn21)N[C@H](CO)Cc1ccccc1 [A157-M-B64 isomer R],2810
10,NC[C@@H](NC(=O)C[C@H]1CNC(=O)c2cc(-c3ccnc(F)c3)cn21)c1ccccc1 [A157-M-B65 isomer S],100
11,O=C(CC1CNC(=O)c2cc(-c3cn[nH]c3)cn21)NCC1CCCCC1 (centres unmarked) [Compound A144-M-B22],660
12,O=C(CC1CNC(=O)c2cc(-c3ccc(F)cc3F)cn21)NCc1ccncc1 (centres unmarked) [Compound A151-M-B39],3690
13,O=C(CC1CNC(=O)c2cc(-c3ccc(F)c(F)c3)cn21)NCc1ccc(F)cc1 (centres unmarked) [Compound A139-M-B30],3370
14,O=C(CC1CNC(=O)c2cc(-c3cccc(Cl)c3)cn21)NCc1ccccc1 (centres unmarked) [Compound A150-M-B14],1520
15,O=C(CC1CNC(=O)c2cc(-c3ccc(F)cc3F)cn21)NCc1ccccc1 (centres unmarked) [Compound A151-M-B14],2250
16,O=C(CC1CNC(=O)c2cc(-c3cccc(OC(F)(F)F)c3)cn21)NCc1cccc(F)c1 (centres unmarked) [Compound A134-M-B30],5800
17,O=C(CC1CNC(=O)c2cc(-c3cccc(F)c3)cn21)NCc1ccccc1 (centres unmarked) [Compound A127-M-B14],2740
18,O=C(C[C@@H]1CNC(=O)c2cc(-c3ccnc(F)c3)cn21)N[C@H](CO)C1CCCCC1 [A157-M-B61 isomer R],2830
19,O=C(CC1CNC(=O)c2cc(-c3cccc(Cl)c3)cn21)NC1CCCC1 (centres unmarked) [Compound A150-M-B26],5510
20,COC(=O)c1cccc(-c2cc3n(c2)C(CC(=O)NCc2ccccc2)CNC3=O)c1 (centres unmarked) [Compound A142-M-B14],6620
21,O=C(CC1CNC(=O)c2cc(-c3cccc(Cl)c3)cn21)NCCN1CCOCC1 (centres unmarked) [Compound A150-M-B38],7510
